Earlier results as cited in patent publication US20240174727A1, “LONG-ACTING NATRIURETIC PEPTIDES AND USES THEREOF” (Eli Lilly and Company, priority 2022, published 2024).

Conditions: cited from earlier work

Q: With Urodilatin as the substance, how does the in vivo half-life read?
A: The in vivo half-life was “about 6 min”.
